In US10800834B2, “HER-1, HER-3 and IGF-1R compositions and uses thereof” (OHIO STATE INNOVATION FOUNDATION, priority 2013, dated 2020):

Experiments:
A549 lung cancer cells = assay: BALB/c SCID transplantable lung tumor model; assay type: in vivo, mouse; set-up: tumor growth and development: dose or concentration left out as unconfirmed
Method: BALB/c SCID mice 5 to 6 weeks old were s.c. injected with 33106 A549 lung cancer cells, and starting from day of tumor injection, mice were treated i.v. with 200 mg each chimeric peptide or cetuximab. […] Tumor growth was measured twice weekly using vernier calipers, and at the end of the experiment, the tumors were extracted and weighed.
the inhibitory effects of the HER-1 peptide mimics and peptide vaccine Abs raised in rabbits were further analyzed in a lung cancer transplantable model using BALB/c SCID mice.

[1] = tested on: JIMT-1, BxPC-3 and Caco-2 cells; assay: HER-1/HER-2 anti-peptide antibody combination: MTT proliferation; assay type: cell-based, human; details: JIMT-1 and BxPC-3 (low HER-2 expression)
Method: FIG. 26 (A-C) contains graphs showing (A) the results of a MTT proliferation assay using combination treatment with HER-1 and HER-2 antibodies as inhibitors in colon (10,000/well), breast (5000/well for MCF-7 and 4000/well for JIMT-1), and pancreatic (4000/well) cancer cells in a 96-well plate; and (B & C) receptor phosphorylation as measured using human phospho-EGFR/HER-2 ELISA kits. Each inhibitor was used at a concentration of 200 μg that was determined after a dose dependent titration from 12.5 μg-200 μg.
In FIG. 26 A, the effects of combination treatment with HER-1 and HER-2 antipeptide vaccine antibodies in three different cell lines are shown: (i) JIMT-1 trastuzumab resistant breast cell line (ii) BxPC-3 pancreatic and (iii) Caco-2 colon cells. […] The results were most significant in the Caco-2 colon cells and this is because the cells express relatively high levels of HER-1 and HER-2. The BxPC-3 and JIMT-1 cells are low expressing HER-2 cell lines with normal HER-1 expression and this explains why the combination effects were less significant trastuzumab. […] FIGS. 26 (B & C) show phosphorylated levels of HER-1 and HER-2 following treatment with both HER-1 and HER-2 peptide vaccine antibodies.

| Substance | tumor growth and development (A549 lung cancer cells; i.v. weekly, peptide mimics or cetuximab) | percentage tumor weight per body mass (A549 lung cancer cells; peptide mimics, vaccine Abs, cetuximab) | anti-proliferative effects [1] |
| --- | --- | --- | --- |
| Cetuximab [reference compound] | significantly delayed tumor growth and development | significant | – |
| trastuzumab | – | – | no anti-proliferative effects |
